Data taken from PubChem BioAssay AID602438 (Sanford-Burnham Center for Chemical Genomics, 2012).
Only a part is listed here, and it is no random draw. Some of these compounds have results that are not shown, active ones among them. Active and inactive are the calls of the source.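 The calls were made as follows: active = inhibition or corrected inhibition above about 18%, plus a signal ratio from 0.5 to 1.5 (limit read from the data, passing the limit was not always enough); inactive = the rest.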

Sequences of proteins named here, by UniProt entry; tags and fusion partners are left off.
UniProt O14786, whole entry: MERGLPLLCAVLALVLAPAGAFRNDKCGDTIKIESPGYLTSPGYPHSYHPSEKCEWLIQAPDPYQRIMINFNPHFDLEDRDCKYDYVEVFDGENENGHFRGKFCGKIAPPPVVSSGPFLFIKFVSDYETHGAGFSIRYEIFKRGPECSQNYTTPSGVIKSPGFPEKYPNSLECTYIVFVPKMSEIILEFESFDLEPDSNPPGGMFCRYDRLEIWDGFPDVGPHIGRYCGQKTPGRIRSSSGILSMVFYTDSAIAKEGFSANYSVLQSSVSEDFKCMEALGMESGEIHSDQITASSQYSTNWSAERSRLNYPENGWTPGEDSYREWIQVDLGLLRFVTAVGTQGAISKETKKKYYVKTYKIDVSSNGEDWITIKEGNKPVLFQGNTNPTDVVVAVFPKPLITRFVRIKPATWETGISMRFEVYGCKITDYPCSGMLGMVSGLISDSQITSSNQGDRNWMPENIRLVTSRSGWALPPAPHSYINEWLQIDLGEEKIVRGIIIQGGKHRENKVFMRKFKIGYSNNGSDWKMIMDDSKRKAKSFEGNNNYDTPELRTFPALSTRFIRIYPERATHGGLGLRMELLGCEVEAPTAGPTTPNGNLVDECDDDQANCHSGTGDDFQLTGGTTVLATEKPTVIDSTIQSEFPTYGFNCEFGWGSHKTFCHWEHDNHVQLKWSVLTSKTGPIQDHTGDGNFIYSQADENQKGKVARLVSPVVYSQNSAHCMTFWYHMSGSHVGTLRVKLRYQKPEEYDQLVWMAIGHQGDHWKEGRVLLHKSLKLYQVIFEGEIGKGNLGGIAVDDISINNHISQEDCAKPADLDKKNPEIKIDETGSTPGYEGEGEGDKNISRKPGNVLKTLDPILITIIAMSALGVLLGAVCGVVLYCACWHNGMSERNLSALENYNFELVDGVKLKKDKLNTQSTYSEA

target: Neuropilin-1 (Homo sapiens) (UniProt O14786); experiment: NRP-1/CendR peptide interaction modulators – biochemical, fluorescence polarization, uHTS, primary screen (AID 602438); details: FAM-RPARPAR peptide binding to NRP-1, fluorescence polarization; at 25 µM; hits give high values

Compound	inhibition
COc1ccc(Br)c(C(=O)NCC2(N3CCCCC3)CCCCC2)c1	inactive: -18.9%
C=C(C)C#CC(O)(C(=O)OC1CCN(C)CC1)c1ccccc1 (stereo unspecified)	inactive: -4%
CN(C)c1cccc(C(=O)NCC2(N(C)C)CCCCC2)c1	inactive: 9.7%
O=C(OCCN1CCCC1)C(O)(c1ccccc1)c1ccccc1	inactive: 16.4%
CC(C)Oc1ccc(C(=O)NCC2(N(C)C)CCCCC2)cc1	inactive: 7.9%
O=C(OC1CN2CCC1CC2)C(CO)(c1ccccc1)c1ccccc1 (stereo unspecified)	inactive: -2.1%
COc1ccc(Cl)cc1C(=O)NCC1(N(C)C)CCCCC1	inactive: -2.6%
COc1cccc(C(=O)NCC2(N3CCCCC3)CCCCC2)c1	inactive: -14.2%
O=C(NCC1(N2CCCCC2)CCCCC1)c1cccc(Cl)c1	inactive: 5.5%
CN(C)C1(CNC(=O)c2ccc(Br)cc2)CCCCC1	inactive: 14.5%
COc1cc(C(=O)NCC2(N(C)C)CCCCC2)c([N+](=O)[O-])cc1OC	inactive: 6.8%
O=C(NCC1(N2CCCCC2)CCCCC1)c1cc(F)c(F)cc1Cl	inactive: -5.1%
C=CCN1CCN(CCOC(=O)C(O)(c2ccccc2)c2ccccc2)CC1	inactive: -2.6%
O=C(NCC1(N2CCCCC2)CCCCC1)c1cccc(Br)c1	inactive: 11.3%
Cc1cc(C(=O)NCC2(N3CCCCC3)CCCCC2)ccc1[N+](=O)[O-]	inactive: 4.2%
CCN1CCCC(OC(=O)C2(O)c3ccccc3C=Cc3ccccc32)C1 (stereo unspecified)	inactive: 7%
COc1ccc(C(=O)NCC2(N(C)C)CCCCC2)cc1	inactive: 0.8%
CN(C)C1CCCC1OC(=O)C(O)(c1ccccc1)c1ccccc1 (stereo unspecified)	inactive: 4.8%
CN(C)c1ccc(C(=O)NCC2(N(C)C)CCCCC2)cc1	inactive: 4.9%
Cc1ccccc1C(=O)NCC1(N2CCCCC2)CCCCC1	inactive: 21%
CC(C)N1C(=O)CC2(CCN(CCOC(=O)C(O)(c3ccccc3)c3ccccc3)CC2)C1=O	inactive: -18.6%
COc1cc(SC)ccc1C(=O)NCC1(N(C)C)CCCCC1	inactive: 6.3%
CCN(CC)CC(C)C(C)OC(=O)C(O)(c1ccccc1)c1ccccc1 (stereo unspecified)	inactive: 10.8%
Cc1ccc(C(=O)NCC2(N3CCCCC3)CCCCC2)cc1	inactive: -6.1%
O=C(NCC1(N2CCCCC2)CCCCC1)c1cc([N+](=O)[O-])ccc1Cl	inactive: -16.2%
CN1[C@@H]2CC[C@H]1CC(OC(=O)C(O)(c1ccccc1)c1ccccc1)C2 (stereo partly specified)	inactive: -2.7%
